Experimental data from PubChem BioAssay (Tox21).
Where “and” joins values, the source holds several entries; their conditions need not be identical. Identical values can stand only once. Only a part is listed here, and it is no random draw. Results filed as inconclusive are left out. More than one record can exist for a structure, and the calls need not agree. Calls of active or inactive are those of the source. Unless noted, the call rests on the fitted dose curve; in most records, active means well fitted inhibition curve with a large enough effect in the repeat runs (not every such curve was filed as active); inconclusive means weak or mixed curves; inactive means flat fitted curve, though single readings scatter.

The chains behind the UniProt entries cited, without tags or fusion partners.
UniProt P34981, whole entry: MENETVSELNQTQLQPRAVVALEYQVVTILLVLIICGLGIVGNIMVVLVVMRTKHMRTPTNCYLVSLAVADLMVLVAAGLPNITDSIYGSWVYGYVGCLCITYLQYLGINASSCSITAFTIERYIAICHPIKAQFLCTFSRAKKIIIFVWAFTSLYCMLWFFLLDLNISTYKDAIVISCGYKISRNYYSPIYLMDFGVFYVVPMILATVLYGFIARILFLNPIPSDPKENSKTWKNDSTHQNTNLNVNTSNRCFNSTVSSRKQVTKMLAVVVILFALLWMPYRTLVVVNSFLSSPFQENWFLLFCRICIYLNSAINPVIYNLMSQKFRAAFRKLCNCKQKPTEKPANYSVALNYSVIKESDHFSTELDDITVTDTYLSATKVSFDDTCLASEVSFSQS

Tested on: not listed separately
Assay: qHTS assay to identify small molecule agonists of the TGF-beta/Smad signaling pathway (AID 1346859; active means well fitted activation curve with a large enough effect in the signal ratio in the repeat runs, not every such curve was filed as active; the % refers to the signal ratio)
Conditions: SBE-bla HEK293T, TGF-beta/Smad beta-lactamase reporter, 5 h; at 76.8 µM (top of the series) unless noted
How it was run: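 SBE-bla HEK293T cells plated overnight, then compound exposure for 5 h at 37 C. Beta-lactamase reporter read with LiveBLAzer B/G FRET substrate after 2 h at room temperature, fluorescence at 405 nm excitation, 460/530 nm emission.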
On the % scale 0 is the no-effect control and ±100 the full control effect.

**Q.** Which activation does the source give for `Cc1cccc([N+](=O)[O-])c1[N+](=O)[O-]` here?
**A.** inactive: -5.73% [at 35.3 µM]

**Q.** Which activation does the source give for `CC(C)N(CCO)C(C)C` here?
**A.** inactive: -0.2%

**Q.** Which activation does the source give for `CCN(CC)CCCl` here?
**A.** inactive: -4.09%

**Q.** With `O=[N+]([O-])c1cccc([N+](=O)[O-])c1` as the compound, how does the activation read?
**A.** inactive: -3.54%

**Q.** With `CC(C)OP(C)(=O)OC(C)C` as the compound, how does the activation read?
**A.** inactive: -3.16% and inactive: 0.0643%

**Q.** For `Cc1ccc([N+](=O)[O-])cc1[N+](=O)[O-]`, which activation is on record?
**A.** inactive: -1.45% and inactive: 0.0746%

**Q.** Which activation does the source give for `O=[N+]([O-])OCC(CO[N+](=O)[O-])(CO[N+](=O)[O-])CO[N+](=O)[O-]` here?
**A.** inactive: 3.31%

**Q.** For `N=C(N)N[N+](=O)[O-]`, which activation is on record?
**A.** inactive: -0.418%

**Q.** With `C/C1=C2N=C(/C=C3N=C(/C(C)=C4\[N-][C@@](C)([C@@H]5N=C1[C@](C)(CCC(=O)NC[C@@H](C)OP(=O)([O-])O[C@H]1[C@@H](O)[C@@H](n6cnc7cc(C)c(C)cc76)O[C@@H]1CO)[C@H]5CC(N)=O)[C@@](C)(CC(N)=O)[C@@H]4CCC(N)=O)[C@@](C)(CC(N)=O)[C@@H]\3CCC(N)=O)C(C)(C)[C@@H]/2CCC(N)=O.[C-]#N.[Co+3]` as the compound, how does the activation read?
**A.** inactive: -1.41% [at 35.3 µM]

**Q.** Which activation does the source give for `O=[N+]([O-])[O-].[NH4+]` here?
**A.** inactive: 1.35% and inactive: 0.9%

**Q.** Which activation does the source give for `COc1ccc([N+](=O)[O-])cc1[N+](=O)[O-]` here?
**A.** inactive: 0.0972%

**Q.** Which activation does the source give for `CCOP(=O)(CC)Oc1ccc([N+](=O)[O-])cc1` (stereo not given) here?
**A.** inactive: 10.4% [at 35.3 µM]

**Q.** With `Nc1cc([N+](=O)[O-])cc([N+](=O)[O-])c1O` as the compound, how does the activation read?
**A.** inactive: -10.8%

**Q.** With `COP(C)(=O)OC` as the compound, how does the activation read?
**A.** inactive: -0.0663% and inactive: 5.38%

**Q.** With `Cc1c([N+](=O)[O-])cccc1[N+](=O)[O-]` as the compound, how does the activation read?
**A.** inactive: 5.64% and inactive: 1%

**Q.** For `[NH4+].[O-][Cl+3]([O-])([O-])[O-]`, which activation is on record?
**A.** inactive: -5.99% and inactive: 4.54%

**Q.** Which activation does the source give for `N#CBr` here?
**A.** inactive: 4.28%

**Q.** With `CCOP(=O)(CC)OCC` as the compound, how does the activation read?
**A.** inactive: 1.27%

**Q.** Which activation does the source give for `CN(C)CCCl` here?
**A.** inactive: 1.9%

**Q.** Which activation does the source give for `CP(=O)(O)OCCC[Si](O)(O)O` here?
**A.** inactive: -0.971%

Biological target: Thyrotropin-releasing hormone receptor (Homo sapiens) (UniProt P34981)
Assay: qHTS assay to identify small molecule antagonists of the thyrotropin-releasing hormone receptor (TRHR) signaling pathway (AID 1346877); further: potency means the concentration at half of the fitted maximal effect
Conditions: TRHR-HEK293, TRH-induced calcium fluorescence, antagonist mode; series mostly up to 51.3 µM; activity, negative = inhibition: at the top concentration

**Q.** Which “activity, negative = inhibition” value does the source give for `Cc1cccc([N+](=O)[O-])c1[N+](=O)[O-]` here?
**A.** inactive: -1.47% [at 23.6 µM]

**Q.** Which “activity, negative = inhibition” value does the source give for `CC(C)N(CCO)C(C)C` here?
**A.** inactive: 9.39%

**Q.** Which “activity, negative = inhibition” value does the source give for `CCN(CC)CCCl` here?
**A.** inactive: 13.2%

**Q.** For `O=[N+]([O-])c1cccc([N+](=O)[O-])c1`, which “activity, negative = inhibition” value is on record?
**A.** inactive: -3.26%

**Q.** For `OCCSCCO`, which Potency is on record?
**A.** inactive

**Q.** For `CC(C)OP(C)(=O)OC(C)C`, which Potency is on record?
**A.** inactive

**Q.** Which “activity, negative = inhibition” value does the source give for `Cc1ccc([N+](=O)[O-])cc1[N+](=O)[O-]` here?
**A.** inactive: -0.896%

**Q.** For `O=[N+]([O-])OCC(CO[N+](=O)[O-])(CO[N+](=O)[O-])CO[N+](=O)[O-]`, which “activity, negative = inhibition” value is on record?
**A.** inactive: 0.659%

**Q.** For `N=C(N)N[N+](=O)[O-]`, which “activity, negative = inhibition” value is on record?
**A.** inactive: 4.56%

**Q.** For `C/C1=C2N=C(/C=C3N=C(/C(C)=C4\[N-][C@@](C)([C@@H]5N=C1[C@](C)(CCC(=O)NC[C@@H](C)OP(=O)([O-])O[C@H]1[C@@H](O)[C@@H](n6cnc7cc(C)c(C)cc76)O[C@@H]1CO)[C@H]5CC(N)=O)[C@@](C)(CC(N)=O)[C@@H]4CCC(N)=O)[C@@](C)(CC(N)=O)[C@@H]\3CCC(N)=O)C(C)(C)[C@@H]/2CCC(N)=O.[C-]#N.[Co+3]`, which “activity, negative = inhibition” value is on record?
**A.** inactive: 4.85% [at 23.6 µM]

**Q.** For `COc1ccc([N+](=O)[O-])cc1[N+](=O)[O-]`, which “activity, negative = inhibition” value is on record?
**A.** inactive: 4.19%

**Q.** For `CCOP(=O)(CC)Oc1ccc([N+](=O)[O-])cc1` (stereo not given), which “activity, negative = inhibition” value is on record?
**A.** inactive: 5% [at 23.6 µM]

**Q.** With `Nc1cc([N+](=O)[O-])cc([N+](=O)[O-])c1O` as the compound, how does the “activity, negative = inhibition” value read?
**A.** inactive: -4.56%

**Q.** Which Potency does the source give for `COP(C)(=O)OC` here?
**A.** inactive

**Q.** With `Cc1c([N+](=O)[O-])cccc1[N+](=O)[O-]` as the compound, how does the Potency read?
**A.** inactive

**Q.** For `Cc1ccc([N+](=O)[O-])c([N+](=O)[O-])c1`, which Potency is on record?
**A.** inactive and active: 15.1 µM

**Q.** With `[NH4+].[O-][Cl+3]([O-])([O-])[O-]` as the compound, how does the Potency read?
**A.** inactive

**Q.** Which “activity, negative = inhibition” value does the source give for `N#CBr` here?
**A.** inactive: 1.04%

**Q.** With `CCOP(=O)(CC)OCC` as the compound, how does the “activity, negative = inhibition” value read?
**A.** inactive: 5.07%

**Q.** With `CN(C)CCCl` as the compound, how does the “activity, negative = inhibition” value read?
**A.** inactive: -0.314%

Biological target: Thyrotropin-releasing hormone receptor (Homo sapiens) (UniProt P34981)
Assay: qHTS assay to identify small molecule agonists of the thyrotropin-releasing hormone receptor (TRHR) signaling pathway (AID 1346891; calls by dose curve;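 further: HEK293 cells expressing TRHR with calcium dye readout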)
Conditions: TRHR-HEK293 calcium fluorescence, agonist mode; at 26.5 µM (top of the series)

**Q.** For `Cc1cccc([N+](=O)[O-])c1[N+](=O)[O-]`, which activation is on record?
**A.** inactive: 1.86%

**Q.** Which activation does the source give for `OCCSCCO` here?
**A.** inactive: -0.662%

**Q.** For `C/C1=C2N=C(/C=C3N=C(/C(C)=C4\[N-][C@@](C)([C@@H]5N=C1[C@](C)(CCC(=O)NC[C@@H](C)OP(=O)([O-])O[C@H]1[C@@H](O)[C@@H](n6cnc7cc(C)c(C)cc76)O[C@@H]1CO)[C@H]5CC(N)=O)[C@@](C)(CC(N)=O)[C@@H]4CCC(N)=O)[C@@](C)(CC(N)=O)[C@@H]\3CCC(N)=O)C(C)(C)[C@@H]/2CCC(N)=O.[C-]#N.[Co+3]`, which activation is on record?
**A.** inactive: -0.599%

**Q.** Which activation does the source give for `CCOP(=O)(CC)Oc1ccc([N+](=O)[O-])cc1` (stereo not given) here?
**A.** inactive: -0.0042%

Same assay, conditions: TRHR-HEK293 calcium fluorescence, agonist mode; at 57.6 µM (top of the series)

**Q.** For `CC(C)N(CCO)C(C)C`, which activation is on record?
**A.** inactive: -0.911%

**Q.** Which activation does the source give for `CCN(CC)CCCl` here?
**A.** inactive: 0.0832%

**Q.** Which activation does the source give for `O=[N+]([O-])c1cccc([N+](=O)[O-])c1` here?
**A.** inactive: 0.678%

**Q.** With `OCCSCCO` as the compound, how does the activation read?
**A.** inactive: 0.0189%

**Q.** For `CC(C)OP(C)(=O)OC(C)C`, which activation is on record?
**A.** inactive: -0.124% and inactive: -0.0184%

**Q.** Which activation does the source give for `Cc1ccc([N+](=O)[O-])cc1[N+](=O)[O-]` here?
**A.** inactive: 0.233% and inactive: -0.257%

**Q.** For `O=[N+]([O-])OCC(CO[N+](=O)[O-])(CO[N+](=O)[O-])CO[N+](=O)[O-]`, which activation is on record?
**A.** inactive: -0.172%

**Q.** For `N=C(N)N[N+](=O)[O-]`, which activation is on record?
**A.** inactive: -0.278%

**Q.** For `COc1ccc([N+](=O)[O-])cc1[N+](=O)[O-]`, which activation is on record?
**A.** inactive: 0.169%

**Q.** Which activation does the source give for `Nc1cc([N+](=O)[O-])cc([N+](=O)[O-])c1O` here?
**A.** inactive: 3.03%

**Q.** With `COP(C)(=O)OC` as the compound, how does the activation read?
**A.** inactive: 0.043% and inactive: -0.109%

**Q.** With `Cc1c([N+](=O)[O-])cccc1[N+](=O)[O-]` as the compound, how does the activation read?
**A.** inactive: -0.719% and inactive: -0.443%

**Q.** Which activation does the source give for `[NH4+].[O-][Cl+3]([O-])([O-])[O-]` here?
**A.** inactive: -0.202% and inactive: 0.0258%

**Q.** For `N#CBr`, which activation is on record?
**A.** inactive: -0.131%

**Q.** Which activation does the source give for `CCOP(=O)(CC)OCC` here?
**A.** inactive: -0.0278%

**Q.** For `CN(C)CCCl`, which activation is on record?
**A.** inactive: -0.368%
